# From paper PMC4844587, “PET imaging of cyclooxygenase-2 (COX-2) in a pre-clinical colorectal cancer model” (EJNMMI Research, 2016)
# Legend:
# HCA-7 cells [1] = experiment: cells; conditions: Homo sapiens, HCA-7, read-out: Inhibition of radiotracer uptake
# HCA-7 cells [2] = conditions: 10 and 100 μM
SMILES,inhibition at 10 µM (HCA-7 cells [1]) [%],inhibition at 100 µM (HCA-7 cells [1]) [%],Blocking of [^18F]Pyricoxib uptake (HCA-7 cells [2])
"CS(=O)(=O)c1ccc(-c2cc(C(F)(F)F)nc(NCc3ccc(F)cc3)n2)cc1 [Pyricoxib, N-(4-fluorobenzyl)-4-[4-(methylsulfonyl)-phenyl]-6-(trifluoro-methyl)pyrimidin-2-amine]",35,50,
CS(=O)(=O)c1ccc(-n2nc(C(F)(F)F)cc2-c2ccc(F)cc2)cc1 [SC58125],,,blocked uptake of [^18F]Pyricoxib in HCA-7 cells in a concentration-dependent manner
